Measurements as given in the CATMoS acute toxicity set (Mansouri et al. 2021).

How the values were obtained:
[1] = GHS categories as the set defines them, by LD50: 1 up to 5, 2 up to 50, 3 up to 300, 4 up to 2000, 5 above 2000 mg/kg; conditions: rat; in vivo; po
rat acute oral toxicity = conditions: in vivo

Row | SMILES | GHS category [1] | LD50 (rat acute oral toxicity) [mg/kg]
1 | C/N=C(\N)N[N+](=O)[O-] | 5 | –
2 | COc1cc2c(c3oc4cccc(O)c4c(=O)c13)C1C=COC1O2 (stereo not drawn) | – | 120
3 | NC(=O)c1cc([N+](=O)[O-])cc([N+](=O)[O-])c1N | 5 | –
